According to US7348140B1, “Clinical indications for genotyping polymorphic variants of G-protein coupled receptors” (Acadia Pharmaceuticals, Inc., priority 2001, dated 2008):
Structures can show the parent of a compound that is named as a salt.

The chains behind the UniProt entries cited, without tags or fusion partners.
UniProt P41595, whole entry: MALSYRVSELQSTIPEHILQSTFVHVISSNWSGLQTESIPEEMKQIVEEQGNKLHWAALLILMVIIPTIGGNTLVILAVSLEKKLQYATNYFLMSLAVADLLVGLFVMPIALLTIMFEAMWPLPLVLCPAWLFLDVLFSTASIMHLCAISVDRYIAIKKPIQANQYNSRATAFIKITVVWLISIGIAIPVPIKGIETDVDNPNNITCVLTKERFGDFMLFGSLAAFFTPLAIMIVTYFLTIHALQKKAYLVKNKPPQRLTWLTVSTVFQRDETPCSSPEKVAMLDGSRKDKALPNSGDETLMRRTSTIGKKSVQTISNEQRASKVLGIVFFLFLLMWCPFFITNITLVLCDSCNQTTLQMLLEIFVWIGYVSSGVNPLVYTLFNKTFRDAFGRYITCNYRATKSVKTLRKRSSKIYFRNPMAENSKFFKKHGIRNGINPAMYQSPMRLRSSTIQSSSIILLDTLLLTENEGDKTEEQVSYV

Target: serotonin 2B receptor (Arginine 388) (Homo sapiens, UniProt P41595)
Assay: cell-based

With Clc1cccc(N2CCNCC2)c1 [mCPP, 1-(3-CHLOROPHENYL)PIPERAZINE DIHYDROCHLORIDE] the EC50 was 14.5 nM.
